Data: patent publication US9938273B2 (Plexxikon Inc., priority 2015, dated 2018)

Protein sequences, listed by entry. Tags and fused reporters are not part of them. Lines headed by an entry give the natural chain unless they say otherwise; changes in a name come on top. Residues count along the entry.
UniProt P36888, whole entry D835Y: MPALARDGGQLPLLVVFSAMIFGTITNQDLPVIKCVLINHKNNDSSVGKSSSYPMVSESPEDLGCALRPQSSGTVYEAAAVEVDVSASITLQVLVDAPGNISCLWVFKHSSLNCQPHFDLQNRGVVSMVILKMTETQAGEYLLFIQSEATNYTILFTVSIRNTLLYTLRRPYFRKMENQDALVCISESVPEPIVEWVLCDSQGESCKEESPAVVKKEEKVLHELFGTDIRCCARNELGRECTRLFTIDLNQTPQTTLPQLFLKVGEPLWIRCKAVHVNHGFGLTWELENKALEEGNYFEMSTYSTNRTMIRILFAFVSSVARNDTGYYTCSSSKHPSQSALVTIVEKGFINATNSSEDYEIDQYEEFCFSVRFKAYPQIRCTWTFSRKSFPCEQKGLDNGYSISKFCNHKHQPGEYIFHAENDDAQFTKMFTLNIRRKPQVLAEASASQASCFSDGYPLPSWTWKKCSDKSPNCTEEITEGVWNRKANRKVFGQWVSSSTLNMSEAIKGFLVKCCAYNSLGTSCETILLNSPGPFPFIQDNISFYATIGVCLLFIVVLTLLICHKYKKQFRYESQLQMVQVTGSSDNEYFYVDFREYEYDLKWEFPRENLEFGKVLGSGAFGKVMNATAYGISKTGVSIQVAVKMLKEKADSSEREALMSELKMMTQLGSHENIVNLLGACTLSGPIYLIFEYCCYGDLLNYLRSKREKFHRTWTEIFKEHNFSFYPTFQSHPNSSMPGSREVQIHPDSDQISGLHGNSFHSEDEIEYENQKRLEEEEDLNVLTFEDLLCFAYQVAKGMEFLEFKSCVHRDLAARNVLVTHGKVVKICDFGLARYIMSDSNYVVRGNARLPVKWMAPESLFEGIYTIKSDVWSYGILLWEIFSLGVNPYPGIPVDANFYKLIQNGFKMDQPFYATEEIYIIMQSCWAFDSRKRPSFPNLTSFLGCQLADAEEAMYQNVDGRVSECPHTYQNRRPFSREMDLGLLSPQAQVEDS
UniProt P36888, 27-993 D835Y limits assumed: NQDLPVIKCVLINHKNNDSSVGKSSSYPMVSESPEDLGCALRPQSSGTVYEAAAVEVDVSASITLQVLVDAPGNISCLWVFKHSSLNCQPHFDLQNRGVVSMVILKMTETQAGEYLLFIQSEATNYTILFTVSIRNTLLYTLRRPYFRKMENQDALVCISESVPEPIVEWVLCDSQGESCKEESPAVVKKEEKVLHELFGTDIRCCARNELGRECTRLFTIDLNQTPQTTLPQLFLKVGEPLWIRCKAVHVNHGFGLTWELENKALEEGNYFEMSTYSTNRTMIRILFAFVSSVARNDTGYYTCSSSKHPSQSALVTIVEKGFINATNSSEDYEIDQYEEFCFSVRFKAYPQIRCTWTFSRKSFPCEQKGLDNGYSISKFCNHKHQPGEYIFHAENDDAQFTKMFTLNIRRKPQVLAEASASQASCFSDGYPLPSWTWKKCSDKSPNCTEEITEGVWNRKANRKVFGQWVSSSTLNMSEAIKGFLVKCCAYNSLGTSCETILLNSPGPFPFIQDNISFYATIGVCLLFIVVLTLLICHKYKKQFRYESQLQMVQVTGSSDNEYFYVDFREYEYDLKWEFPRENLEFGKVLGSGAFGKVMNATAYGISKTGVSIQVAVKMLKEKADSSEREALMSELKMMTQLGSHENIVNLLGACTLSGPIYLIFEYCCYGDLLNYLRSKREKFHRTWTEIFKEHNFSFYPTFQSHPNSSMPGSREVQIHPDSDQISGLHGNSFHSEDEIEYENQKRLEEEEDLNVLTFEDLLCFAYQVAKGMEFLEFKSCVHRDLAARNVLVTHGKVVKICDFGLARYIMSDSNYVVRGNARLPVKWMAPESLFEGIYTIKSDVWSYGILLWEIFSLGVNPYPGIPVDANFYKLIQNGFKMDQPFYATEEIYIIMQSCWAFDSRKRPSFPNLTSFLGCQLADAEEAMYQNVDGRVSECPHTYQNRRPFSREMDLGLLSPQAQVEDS
UniProt P36888, whole entry, stated change not applied: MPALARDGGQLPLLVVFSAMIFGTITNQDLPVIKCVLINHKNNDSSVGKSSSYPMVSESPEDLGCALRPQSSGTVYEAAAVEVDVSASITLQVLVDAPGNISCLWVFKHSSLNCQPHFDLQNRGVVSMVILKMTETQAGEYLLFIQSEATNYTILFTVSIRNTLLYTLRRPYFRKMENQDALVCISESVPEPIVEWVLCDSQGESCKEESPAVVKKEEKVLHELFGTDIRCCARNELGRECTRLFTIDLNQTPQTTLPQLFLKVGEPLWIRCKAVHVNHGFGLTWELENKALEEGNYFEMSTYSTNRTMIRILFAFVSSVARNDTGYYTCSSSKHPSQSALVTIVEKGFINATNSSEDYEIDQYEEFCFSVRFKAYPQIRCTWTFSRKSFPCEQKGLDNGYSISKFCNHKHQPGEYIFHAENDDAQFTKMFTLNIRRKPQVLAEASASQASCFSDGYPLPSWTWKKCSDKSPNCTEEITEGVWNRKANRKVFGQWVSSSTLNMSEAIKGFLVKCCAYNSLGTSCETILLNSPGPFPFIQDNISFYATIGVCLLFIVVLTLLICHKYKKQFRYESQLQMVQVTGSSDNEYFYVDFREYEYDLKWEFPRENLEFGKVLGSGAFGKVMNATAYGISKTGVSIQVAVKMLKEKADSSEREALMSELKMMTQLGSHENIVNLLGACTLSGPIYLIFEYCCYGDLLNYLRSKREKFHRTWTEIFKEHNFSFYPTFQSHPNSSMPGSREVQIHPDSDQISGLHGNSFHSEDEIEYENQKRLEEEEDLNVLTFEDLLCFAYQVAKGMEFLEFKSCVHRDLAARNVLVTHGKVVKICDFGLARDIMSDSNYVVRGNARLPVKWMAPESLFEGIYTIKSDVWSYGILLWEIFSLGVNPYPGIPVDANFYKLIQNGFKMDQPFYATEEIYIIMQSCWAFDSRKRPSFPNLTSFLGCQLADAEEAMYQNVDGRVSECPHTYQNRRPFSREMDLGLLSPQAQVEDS
UniProt P10721, 26-976 limits assumed: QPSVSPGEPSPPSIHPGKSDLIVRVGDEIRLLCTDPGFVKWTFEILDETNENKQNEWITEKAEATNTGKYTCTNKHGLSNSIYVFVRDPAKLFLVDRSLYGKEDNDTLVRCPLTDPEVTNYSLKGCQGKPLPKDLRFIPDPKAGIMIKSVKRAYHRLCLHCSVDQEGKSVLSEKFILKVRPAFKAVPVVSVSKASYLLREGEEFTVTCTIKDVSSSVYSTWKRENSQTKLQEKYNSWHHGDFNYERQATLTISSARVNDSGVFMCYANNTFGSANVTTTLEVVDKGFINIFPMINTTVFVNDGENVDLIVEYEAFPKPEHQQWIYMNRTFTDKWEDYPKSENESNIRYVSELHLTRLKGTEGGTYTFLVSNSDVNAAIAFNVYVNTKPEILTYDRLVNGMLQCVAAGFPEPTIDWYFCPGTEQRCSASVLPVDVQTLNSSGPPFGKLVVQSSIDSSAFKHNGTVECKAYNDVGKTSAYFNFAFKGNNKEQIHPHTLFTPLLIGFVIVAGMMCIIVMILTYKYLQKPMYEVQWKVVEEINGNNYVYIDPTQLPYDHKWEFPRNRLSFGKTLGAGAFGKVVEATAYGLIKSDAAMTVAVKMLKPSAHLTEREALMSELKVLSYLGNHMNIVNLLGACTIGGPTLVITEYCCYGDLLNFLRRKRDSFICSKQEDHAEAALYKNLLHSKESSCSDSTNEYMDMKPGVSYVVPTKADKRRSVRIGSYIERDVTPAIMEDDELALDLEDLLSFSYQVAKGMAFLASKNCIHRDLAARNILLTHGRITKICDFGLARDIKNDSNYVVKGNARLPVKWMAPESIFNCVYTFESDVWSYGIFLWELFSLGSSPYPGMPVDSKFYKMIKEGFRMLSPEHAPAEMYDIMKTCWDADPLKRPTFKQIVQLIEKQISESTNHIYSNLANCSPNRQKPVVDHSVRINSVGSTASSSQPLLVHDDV

Columns and labels:
[1] = tested on: MOLM-14 D835Y cells, FLT3 ITD and FLT3 D835Y; test: Cell proliferation assay (CellTiter-Glo), MOLM-14 D835Y; details: read-out: MOLM-14 D835Y 3d-Growth GMean IC50
Text: (§1) The FLT3 inhibitors may be assessed using the MOLM-14, Acute Myeloid Leukemia cell line that endogenously expresses FLT3 ITD or derivatives of the human FLT3 AML cell line which acquired the D835Y (activation loop) of F691L (gatekeeper) mutation after selection in escalating doses of the FLT3 Inhibitor AC220. FLT3 inhibitors may also be assessed using cells that are engineered to express mutant FLT3. For engineered cells, murine Ba/F3 cells were transfected with full-length FLT3 ITD/D835Y mutations. The parental BA/F3 cells are dependent upon Interleukin-3 (IL-3) for survival, and introduction of the FLT3 constructs rendered these cells dependent upon FLT3 kinase activity when cultured in the absences of IL-3. […] This inhibition is measured as a function of compound concentration to asses IC50 values. […]
(§2) Cells were seeded at 1×10^4 cells per well of a 96 well cell culture plate in 50 μl of cell culture medium. […] The plates were read on a Tecan M1000 using Luminescence protocol modified to read 0.1 s per well. The luminescence reading assesses the ATP content, which correlates directly with cell number such that the reading as a function of compound concentration was used to determine the IC50 value.

[2] = target: BA/F3-FLT3-ITD + D835Y cells (Homo sapiens, UniProt P36888, D835Y, cells depend on it, form not given); test: Cell proliferation assay (CellTiter-Glo), engineered BA/F3 cells; details: read-out: BaF3_FLT3 ITD/D835Y 3d-Growth: IC50, BaF3 FLT3 ITD/D835Y cells
Text: as §1, §2

FLT3-ITD = FLT3-ITD (Homo sapiens, UniProt P36888); test: AlphaScreen kinase assay with recombinant enzyme, FLT3-ITD; details: read-out: FLT3_ITD 8pt: IC50
Method: (§3) In order to determine the effect of compounds on FLT3 catalytic activity, kinase assays using recombinant enzymes and AlphaScreen® technology have been established. The catalytic activity of c-kit activity was also measured to determine selectivity of the compounds. When the kinases are catalytically active, they phosphorylate a biotinylated peptide substrate on tyrosine residues. Using AlphaScreen® technology, the ability of the compounds to affect the catalytic activity of the kinases can be measured quantitatively. The peptide substrate is immobilized by the AlphaScreen® Streptavidin Donor beads and, upon phosphorylation by a tyrosine kinase, can bind to AlphaScreen® Anti-Phosphotyrosine (PY20) Acceptor beads. Upon excitation of these beads with laser light at 680 nm, singlet oxygen is produced. This singlet oxygen is rapidly quenched, unless the AlphaScreen® Anti-Phosphotyrosine (PY20) Acceptor beads are in close proximity, in which case a proximity signal can be measured at 580 nm. In the presence of catalytic activity, there is a very strong proximity signal. Selective kinase inhibitors affect a decrease in this proximity signal through a decrease in tyrosine phosphorylation of the peptide substrate.
(§4) The assay was performed as summarized below.
(§5) Poly (Glu4-Tyr) Peptide, biotin conjugate [Biotin-GG(EEEEY)10EE] (SEQ ID NO: 4) […]
(§6) Read plate on Wallac EnVision™ 2103 Multilabel Reader.

FLT3-D835Y = FLT3-D835Y (Homo sapiens, UniProt P36888, D835Y); test: AlphaScreen kinase assay with recombinant enzyme, FLT3-D835Y; details: read-out: FLT3 D835Y 8pt GMean IC50
Method: as §3, §4, §5, §6

c-KIT = c-KIT (Homo sapiens, UniProt P10721); test: AlphaScreen kinase assay with recombinant enzyme, c-KIT; details: read-out: KIT 100ATP 8pt GMean IC50
Method: as §3, §4, §5, §6

N#CC1CCN(C(=O)c2cccc(-c3cnc4nc(-c5ccccc5)[nH]c4c3)n2)C1 (centres unmarked)
0.0001 to 10 µM: IC50 [1] | GI50 [2] | IC50 (FLT3-ITD) | IC50 (FLT3-D835Y)

NC1CCN(C(=O)c2cccc(-c3cnc4[nH]c(-c5ccccc5)cc4c3)c2)CC1
0.0001 to 10 µM: GI50 [2] | IC50 (FLT3-ITD) | IC50 (FLT3-D835Y) | IC50 (c-KIT)
